Values quoted from earlier work, collected in patent publication US5166066A (priority 1991, dated 1992).

Test system: α1 - and β1 -subunits of the bovine brain GABAA receptor
Conditions: CHO cells, dexamethasone-inducible promoter; cited from earlier work

CCCC(C)C1(CC)C(=O)NC(=O)NC1=O (stereo not shown) [pentobarbitone]
effect on current response of α1β1 GABAA receptors: potentiated
